# Yeast mating assay 1: variants of the scFv Ab-14

Target peptide (SARS-CoV-2 spike, HR2 region): PDVDLGDISGINAS

The variants keep the heavy chain, the linker and the frameworks of Ab-14 (scFv order VH, the linker GGGGSGGGGSGGGGS, VL).
VH: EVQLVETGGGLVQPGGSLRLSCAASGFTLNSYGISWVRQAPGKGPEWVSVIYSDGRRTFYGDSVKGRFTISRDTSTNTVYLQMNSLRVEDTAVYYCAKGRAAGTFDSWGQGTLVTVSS
VL: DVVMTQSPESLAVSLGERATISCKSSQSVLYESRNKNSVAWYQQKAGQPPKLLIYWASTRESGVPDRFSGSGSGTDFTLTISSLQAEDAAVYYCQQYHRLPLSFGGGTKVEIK

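The starting antibody came from a phage panning campaign against this peptide. Library AAYL50 holds single substitutions and randomly drawn double and triple substitutions in the CDRs. In AlphaSeq, yeast of one mating type display the scFv and yeast of the other type display the target. The frequency of each diploid, read from paired DNA barcodes, reflects how well the two displayed proteins bind. The ratio of observed to expected reads was calibrated, replicate by replicate, on BCL2-family standards whose Kd was known from biolayer interferometry. Each pool was mated in three replicate cultures.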

Positions count from residue 1 of the parent VL; K24W puts W in place of K.
All variants listed here change L100 of the VL, counted from its first residue.
Numbers give log10(Kd / nM), so 0 is 1 nM and 3 is 1 µM. Smaller is tighter.
Averages over replicates are reported, and they cover detected replicates only.
An entry "no signal" has no value in the source: the pair was not observed among the diploids in any replicate. This suggests poor binding but is not conclusive.
Nonspecific signal, from three strains lacking the peptide, appeared in 18% of pairings of library AAYL50, centred on 4.19 (5% of these signals below 2.99); values are not corrected for it. The control count says in how many pairings with the empty strains this scFv gave a signal.

Variant K24W+S26P+L100G showed no signal (0 of 3 replicates; controls 0 of 9). Variant S25I+H98P+L100A gave 0.26 (3 of 3 replicates; controls 1 of 9). With A40F+T59M+L100E the result was no signal (0 of 3 replicates; controls 1 of 9). Variant S26P+S33D+L100Q gave 4.35 (1 of 3 replicates; controls 2 of 9). Variant W56C+R99L+L100Q showed 4.01 (1 of 3 replicates; controls 5 of 9).

For Q96A+L100E+P101L, the assay gave 1.51 (3 of 3 replicates; controls 0 of 9). For W56G+R60M+L100A, the assay gave no signal (0 of 3 replicates; controls 1 of 9). Variant R99C+L100M showed 1.89 (3 of 3 replicates; controls 0 of 9). For Y31I+Q96E+L100M, the assay gave 3.54 (2 of 3 replicates; controls 1 of 9). With S28F+A57N+L100K the result was no signal (0 of 3 replicates; controls 0 of 9).

Variant R60S+S62Q+L100S gave no signal (0 of 3 replicates; controls 2 of 9). Variant Q27N+S33G+L100G showed 4.58 (3 of 3 replicates; controls 4 of 9). Variant S62V+Y97D+L100D showed 1.81 (3 of 3 replicates; controls 4 of 9). With N35I+L100Y the result was 2.83 (3 of 3 replicates; controls 4 of 9). With V39G+L100S+L102P the result was no signal (0 of 3 replicates; controls 0 of 9).

Variant V39Q+E61D+L100Y gave no signal (0 of 3 replicates; controls 4 of 9). Variant R34A+V39L+L100I gave 1.30 (3 of 3 replicates; controls 0 of 9). Variant K24Y+N37S+L100E gave 1.78 (3 of 3 replicates; controls 2 of 9). With E32G+L100E+L102M the result was 2.61 (3 of 3 replicates; controls 0 of 9). With S25C+Q27D+L100N the result was no signal (0 of 3 replicates; controls 0 of 9).

With S26M+N37V+L100G the result was no signal (0 of 3 replicates; controls 0 of 9). Variant V29M+R60Q+L100R gave 3.86 (1 of 3 replicates; controls 1 of 9). Variant A57W+Q95R+L100F showed 5.73 (3 of 3 replicates; controls 3 of 9). For S58G+H98A+L100Y, the assay gave 0.99 (3 of 3 replicates; controls 1 of 9). Variant R99S+L100M+P101V showed 0.67 (3 of 3 replicates; controls 1 of 9).

Variant L100V+P101E+S103A gave 0.74 (3 of 3 replicates; controls 1 of 9). For K24A+E61P+L100G, the assay gave 4.39 (1 of 3 replicates; controls 0 of 9). With S33Y+N35E+L100Q the result was 5.40 (1 of 3 replicates; controls 1 of 9). With Q96P+L100G the result was 2.46 (3 of 3 replicates; controls 3 of 9). With A57F+Q96E+L100Y the result was 2.34 (1 of 3 replicates; controls 2 of 9).

Variant S62R+L100A showed 1.38 (3 of 3 replicates; controls 2 of 9). For A40F+R99E+L100W, the assay gave no signal (0 of 3 replicates; controls 1 of 9). Variant R60W+S62N+L100R showed 4.79 (2 of 3 replicates; controls 3 of 9).

Top 3 of the variants detected in all replicates, tightest first:

changes,mean log10 Kd (nM),replicates with signal,empty controls
S25I+H98P+L100A,0.26,3/3,1/9
R99S+L100M+P101V,0.67,3/3,1/9
L100V+P101E+S103A,0.74,3/3,1/9

Reference: Engelhart et al. 2022, doi:10.1038/s41597-022-01779-4. File: FLAb, binding data.